Experimental data published in US20070207946A1, “Dipeptidyl peptidase IV inhibitors and their uses for lowering blood pressure levels” (priority 2001, published 2007).

By UniProt entry, the sequences of proteins in these tests, tags left out. Residues count along the entry.
UniProt P14740, 38-767 limits assumed: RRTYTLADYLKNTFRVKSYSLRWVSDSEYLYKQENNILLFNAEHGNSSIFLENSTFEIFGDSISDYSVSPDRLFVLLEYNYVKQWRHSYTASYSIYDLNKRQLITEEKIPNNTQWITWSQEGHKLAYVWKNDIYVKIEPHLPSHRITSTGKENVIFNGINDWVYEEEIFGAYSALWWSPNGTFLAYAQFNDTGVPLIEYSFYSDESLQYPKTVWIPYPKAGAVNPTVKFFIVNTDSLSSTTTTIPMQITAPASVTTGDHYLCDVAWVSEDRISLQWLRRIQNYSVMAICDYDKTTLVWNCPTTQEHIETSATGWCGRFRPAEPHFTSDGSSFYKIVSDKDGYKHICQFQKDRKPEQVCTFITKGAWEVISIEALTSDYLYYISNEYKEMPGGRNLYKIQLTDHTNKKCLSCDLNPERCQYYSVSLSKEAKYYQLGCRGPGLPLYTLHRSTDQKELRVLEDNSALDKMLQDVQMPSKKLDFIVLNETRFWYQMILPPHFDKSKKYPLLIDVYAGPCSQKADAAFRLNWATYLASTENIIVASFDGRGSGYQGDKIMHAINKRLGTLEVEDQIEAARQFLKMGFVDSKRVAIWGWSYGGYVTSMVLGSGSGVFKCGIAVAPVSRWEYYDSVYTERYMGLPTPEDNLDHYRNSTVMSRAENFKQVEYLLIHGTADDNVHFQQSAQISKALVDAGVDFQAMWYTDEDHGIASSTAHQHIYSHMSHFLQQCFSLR

Molecular target: T1, plasma DPIV activity (Rattus norvegicus, UniProt P14740)
T1 construct: from tissue; host or cells: plasma of Wistar rats
Assay: DPIV inhibiting activity after intravasal and oral administration to Wistar rats
Type: in vivo
Conditions: dose 100 mg/kg, oral

Structure (SMILES) | in vivo DPIV-inhibition at tmax, p.o.
CC[C@H](C)[C@H](N)C(=O)N1CCC[C@H]1C(=O)N[C@H](C(=O)O)[C@@H](C)CC [Diprotin A, Ile-Pro-Ile, reference compound] | no inhibition
CC(C)C[C@H](NC(=O)[C@@H]1CCCN1C(=O)[C@@H](N)C(C)C)C(=O)O [Diprotin B, Val-Pro-Leu, reference compound] | no inhibition
